The results in this text go back to PubChem BioAssay AID463075 (University of Pittsburgh Molecular Library Screening Center, 2010).

The list shows a part of the results, in another mix than the full data. Some of these compounds have results that are not shown, active ones among them. Activity calls are given as the source filed them.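 Rule for the calls: active = activation, meaning protection from cell death, of at least 50% relative to plate controls; inactive = activation below 50%.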

A short description of this assay: inhibitors of TNF-alpha triggered necroptosis, primary screen, cell-based, Jurkat FADD-/-, single concentration (AID 463075).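 Note: necroptosis triggered by 40 ng/mL TNF-alpha added together with compound.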 The conditions noted are these: Jurkat FADD-/- TNF necroptosis rescue, ATP luminescence, 24 h; at 10 µM; stronger effect = higher value; 0 = TNF only, 100 = no-TNF cells.
In the case of `Cc1ccccc1C(=O)NCC1(N2CCCCC2)CCCCC1`, the activation (protection from cell death) is inactive: 0.175%.

`CN(C)C1CCCC1OC(=O)C(O)(c1ccccc1)c1ccccc1` (stereo unspecified): the activation (protection from cell death) is inactive: 1.91%.

On to `C=CCN1CCN(CCOC(=O)C(O)(c2ccccc2)c2ccccc2)CC1`, for which the activation (protection from cell death) is inactive: 0.349%.

On to `CCN1CCCC(OC(=O)C2(O)c3ccccc3C=Cc3ccccc32)C1` (stereo unspecified), for which the activation (protection from cell death) is inactive: 3%.

On to `O=C(NCC1(N2CCCCC2)CCCCC1)c1cc([N+](=O)[O-])ccc1Cl`, for which the activation (protection from cell death) was inactive: 1.17%.

In the case of `CC(C)N1C(=O)CC2(CCN(CCOC(=O)C(O)(c3ccccc3)c3ccccc3)CC2)C1=O`, the activation (protection from cell death) was inactive: -3.72%.

As to `CCN(CC)CC(C)C(C)OC(=O)C(O)(c1ccccc1)c1ccccc1` (stereo unspecified), the activation (protection from cell death) was inactive: 7.81%.

With `O=C(OC1CN2CCC1CC2)C(CO)(c1ccccc1)c1ccccc1` (stereo unspecified), the activation (protection from cell death) was inactive: 0.0536%.

Turning to `COc1ccc(Br)c(C(=O)NCC2(N3CCCCC3)CCCCC2)c1`, the activation (protection from cell death) is inactive: -0.174%.

As to `CN(C)c1cccc(C(=O)NCC2(N(C)C)CCCCC2)c1`, the activation (protection from cell death) was inactive: 0.754%.

Turning to `COc1cccc(C(=O)NCC2(N3CCCCC3)CCCCC2)c1`, the activation (protection from cell death) was inactive: 0.577%.
